Data: patent US4999199A, “Pharmaceutical formulations: liposomes incorporating aromatic polyene antibiotics” (priority 1988, dated 1991)

What was measured:
mice [1] = assay: Acute toxicity of small unilamellar vesicles (SUV) of candicidin injected intravenously into mice; conditions: intravenous, free form solubilized in DMSO
mice [2] = conditions: multilamellar liposomes or free drug, intravenous infection model

Question: What does the source list for candicidin?
Answer: maximal tolerated dose (mice [1]): 1 mg/kg; maximal tolerated dose (MTD) (mice [2]): 1 mg/kg
